# Measured values as given in patent US20140037708A1, “COMPOSITION FOR SPATIO AND/OR TEMPORAL RELEASE OF BIOACTIVE MATERIAL” (The Regents of the University of Colorado, a body corporate, priority 2012, published 2014).
# Assay: Double-sided release test of fluorescent molecules from electrospun scaffolds in custom-made diffusion chambers
# Assay type: physicochemical
# Method: For molecule release characterizations, the circular samples with 24 mm in diameter were cut from PCL-PLGAac and PCL-PLGAes scaffolds loaded with fluorescent dye or fluorescently-labeled albumin. For each experimental condition, 3 samples were used for analyses. Scaffold samples were placed in a custom-made diffusion-test system in which a sample was sandwiched between two reservoir chambers. Each side of the electrospun scaffolds thus faced a different reservoir filled with 1 ml of buffer solution. The reservoirs used SecureSeal hybridization chambers (Grace Biolabs, Bend, Oreg.) which tightly sealed the surface. Each reservoir had small holes for sampling and changing solutions. The holes were covered with silicone sealing tap during experiments to prevent evaporation. Thus, the molecule movements between the reservoirs could only be through the pores of the electrospun materials. The release tests were performed at 37° C. Samples of buffer solutions in both reservoirs were collected every day during the first 16 days, and subsequently once a week for scaffolds loaded with fluorescent albumins. A shorter release experiment was performed in case of electrospun scaffolds loaded with Rh123. After samples were taken, the reservoir chambers were rapidly rinsed with DI water and refilled with fresh phosphate buffer at 37° C. Samples of 200 μl in triplicates were analyzed in 96-well microplates with a Victor 2 microplate reader (PerkinElmer, Santa Clara, Calif.) to quantify the released amount of Rh123, AlbF and AlbT. The concentration and net amount of released Rh123, AlbF and AlbT were determined using the respective calibration curves. The geometry and porosity of the molecule-releasing scaffolds kept constant for all the experimental samples. For the designs with multiple molecules, as various fluorophores could be simultaneously released by the samples, the possibility of the overlap of the fluorophore emission spectra was examined; we could find no overlaps in the interested spectrum ranges. […] For each type of molecule, the efficiency of separation between Side A and Side B, Smolecule—A-B, was defined as the percentage of the molecule released on Side A over the total amount of the molecule released on Sides A and B during the entire experimental duration.
# To assess the potential use of PCL-PLGAac and PCL-PLGAes materials for spatially controlled release of active molecules, release experiments were performed using Rh123. PCL and PLGA/Rh123 solutions were electrospun to prepare scaffolds following the pattern described in FIG. 1. Release studies were carried out in custom-made diffusion chambers illustrated in FIG. 7a. The two sealed reservoirs filled with phosphate buffer solution were placed on the opposite sides of the electrospun scaffolds. The PCL side of the scaffold was set to face the buffer reservoir chamber on Side “A”; the Rh123-impregnated PLGA side was placed in contact with the buffer reservoir on Side “B”. […] The separation efficiency of Rh123 between the two surfaces (SRh123—B-A) of the PCL-PLGAac scaffolds was 82±5% during the 9-day release experiment. […] In addition, after day 3, the molecule concentration measured on the PCL side exceeded that on the PLGAes side.
substance,measurement,setting,value
tetra-methyl-rhodamine isothiocyanate conjugate bovine serum albumin [AlbT],separation efficiency (release of two proteins to one side),"PCL-PLGAac composite scaffold, AlbF in inner PLGAac fibers, AlbT in outer PLGAac fibers (FIG. 10a)",91±4%
same,separation efficiency for AlbT between side B and side A,"PCL-PLGAac scaffold, AlbT in PLGAac nanofibers, Side B = PLGAac side, 50-day experiment, 37° C.",90±4%
same,total amount of entrapped AlbT released during the experiment,"PCL-PLGAac scaffold, 50-day experiment, estimated with PLGAac content of 48%",approximately 88%
same,total loaded protein released in 9 days,"PCL-PLGAac scaffold, 9 days",80%
same,sustained release at a constant rate after day 9,"PCL-PLGAac scaffold, after day 9",about 1 % per week
same,total loaded protein released in the first 24 hours,"PCL-PLGAac scaffold, first 24 hours",Approximately 20%
same,separation efficiency between side B and side A (sequential release scaffold),"PCL/PLGA scaffold with dual PLGA gradient patterns: AlbF-loaded PLGA in the middle, AlbT-loaded PLGA close to side B (FIG. 11a)",0.85±0.04
same,separation efficiency of AlbT between Side B and Side A (SAlbT B-A),"PLGAac-PCL-PLGAac composite scaffold, release to opposite sides (FIG. 12)",92±3%
same,day on which daily net release to side B peaked,"sequential release scaffold (FIG. 11), first 12 days",day 1 and day 2
